# Test results taken from ChEMBL document CHEMBL1141454, “Structural and functional basis of cyclooxygenase inhibition” (J Med Chem, 2007).
# Amino acid sequences for entries named in this document (tags omitted).
# UniProt P23219, whole entry: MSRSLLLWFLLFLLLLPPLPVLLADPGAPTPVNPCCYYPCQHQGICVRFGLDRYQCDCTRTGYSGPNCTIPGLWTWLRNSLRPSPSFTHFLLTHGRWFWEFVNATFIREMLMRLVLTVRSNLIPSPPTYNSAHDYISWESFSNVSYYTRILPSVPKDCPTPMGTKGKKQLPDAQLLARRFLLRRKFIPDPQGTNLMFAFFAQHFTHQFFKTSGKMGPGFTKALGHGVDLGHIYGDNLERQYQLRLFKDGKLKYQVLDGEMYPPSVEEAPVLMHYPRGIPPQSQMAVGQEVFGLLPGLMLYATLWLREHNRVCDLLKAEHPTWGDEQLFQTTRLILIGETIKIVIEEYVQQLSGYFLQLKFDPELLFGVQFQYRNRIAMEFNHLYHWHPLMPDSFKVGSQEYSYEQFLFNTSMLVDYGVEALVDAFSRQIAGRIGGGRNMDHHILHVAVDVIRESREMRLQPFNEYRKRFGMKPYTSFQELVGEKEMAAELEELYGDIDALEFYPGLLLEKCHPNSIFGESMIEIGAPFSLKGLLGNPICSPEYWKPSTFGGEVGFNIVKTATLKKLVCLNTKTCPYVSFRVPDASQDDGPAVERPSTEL
# pIC50: −log10 of the molar value.
# Target: Prostaglandin G/H synthase 1 (Homo sapiens, UniProt P23219)
smiles,measurement,value
CC(C(=O)O)c1ccc(-c2ccccc2)c(F)c1 (stereo unspecified) [FLURBIPROFEN],pIC50,8.00
